For assay [1], the target named is T1, Metabotropic glutamate receptor 1 (Rattus norvegicus, UniProt P23385). The assay can be described thus: Concentration for half maximal activation of metabotropic glutamate mGluR1c in rat.
Assay [2] concerns the target T1, Metabotropic glutamate receptor 1. The assay can be described thus: Concentration for half maximal activation of metabotropic glutamate mGluR1b in rat.
Assay [3] has the same target. The assay can be described thus: Concentration for half maximal activation of metabotropic glutamate mGluR1a in rat.

Protein sequences, listed by entry. Tags and fused reporters are not part of them. Lines headed by an entry give the natural chain unless they say otherwise; changes in a name come on top.
UniProt P23385: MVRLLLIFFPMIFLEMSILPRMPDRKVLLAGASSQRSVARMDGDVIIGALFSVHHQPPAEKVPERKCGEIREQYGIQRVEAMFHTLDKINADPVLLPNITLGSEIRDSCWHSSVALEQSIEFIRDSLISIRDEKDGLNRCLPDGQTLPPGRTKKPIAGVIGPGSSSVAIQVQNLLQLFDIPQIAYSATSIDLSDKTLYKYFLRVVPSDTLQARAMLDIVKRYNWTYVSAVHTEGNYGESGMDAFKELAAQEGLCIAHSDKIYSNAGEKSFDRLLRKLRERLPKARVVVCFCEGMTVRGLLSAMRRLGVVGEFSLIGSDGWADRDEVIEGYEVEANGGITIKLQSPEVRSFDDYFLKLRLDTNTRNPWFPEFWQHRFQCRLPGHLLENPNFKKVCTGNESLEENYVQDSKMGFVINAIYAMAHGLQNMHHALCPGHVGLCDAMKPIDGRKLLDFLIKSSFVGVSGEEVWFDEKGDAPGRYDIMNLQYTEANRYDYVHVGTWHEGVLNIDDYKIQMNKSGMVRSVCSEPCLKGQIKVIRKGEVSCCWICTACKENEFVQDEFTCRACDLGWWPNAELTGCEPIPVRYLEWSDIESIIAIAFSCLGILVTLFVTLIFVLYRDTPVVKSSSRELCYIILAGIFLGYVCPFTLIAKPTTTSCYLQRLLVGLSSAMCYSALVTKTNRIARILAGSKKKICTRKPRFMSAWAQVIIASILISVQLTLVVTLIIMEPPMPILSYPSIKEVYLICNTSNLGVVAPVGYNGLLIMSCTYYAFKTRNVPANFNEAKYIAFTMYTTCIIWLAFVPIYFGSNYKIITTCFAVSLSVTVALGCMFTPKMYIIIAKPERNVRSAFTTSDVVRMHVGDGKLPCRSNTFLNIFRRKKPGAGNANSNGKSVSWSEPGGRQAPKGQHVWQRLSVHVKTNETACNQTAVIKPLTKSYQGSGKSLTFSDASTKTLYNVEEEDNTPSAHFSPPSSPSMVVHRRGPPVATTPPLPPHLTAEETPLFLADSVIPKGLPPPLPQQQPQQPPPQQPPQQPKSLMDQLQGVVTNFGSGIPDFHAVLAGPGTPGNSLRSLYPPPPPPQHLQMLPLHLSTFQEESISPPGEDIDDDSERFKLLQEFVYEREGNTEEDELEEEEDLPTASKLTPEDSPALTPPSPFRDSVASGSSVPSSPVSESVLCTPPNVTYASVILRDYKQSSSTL

The EC50 is the midpoint of the concentration-response curve. Low readings indicate an effect from little substance, high ones a need for much substance.

Values joined by “and” are separate entries in the source; they are usually repeats but may differ in a detail not shown here. Equal values may be shown once.

Turning to `N[C@@H](Cn1oc(=O)[nH]c1=O)C(=O)O` [QUISQUALATE], the EC50 in assay [1] was 750 nM; in assay [2], 2500 nM; in assay [3] it was 200 nM and 700 nM.

The values are drawn from ChEMBL document CHEMBL1128305, “Metabotropic glutamate receptors: novel targets for drug development” (J Med Chem, 1995).
